Our source for the IC50 values is US9328099B2, “Cyanomethylpyrazole carboxamides as janus kinase inhibitors” (Merck Sharp & Dohme Corp., priority 2011, dated 2016).

Sequences of proteins named here, by UniProt entry; tags and fusion partners are left off. Residues count along the entry.
UniProt P23458, 875-1153: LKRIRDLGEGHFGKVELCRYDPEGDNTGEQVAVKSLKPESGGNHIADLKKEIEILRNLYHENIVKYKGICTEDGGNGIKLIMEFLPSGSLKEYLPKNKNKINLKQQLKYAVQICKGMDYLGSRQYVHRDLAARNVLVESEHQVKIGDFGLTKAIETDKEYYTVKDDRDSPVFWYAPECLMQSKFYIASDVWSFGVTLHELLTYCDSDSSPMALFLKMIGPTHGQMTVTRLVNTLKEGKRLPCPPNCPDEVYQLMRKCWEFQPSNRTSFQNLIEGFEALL
UniProt O60674, 849-1124: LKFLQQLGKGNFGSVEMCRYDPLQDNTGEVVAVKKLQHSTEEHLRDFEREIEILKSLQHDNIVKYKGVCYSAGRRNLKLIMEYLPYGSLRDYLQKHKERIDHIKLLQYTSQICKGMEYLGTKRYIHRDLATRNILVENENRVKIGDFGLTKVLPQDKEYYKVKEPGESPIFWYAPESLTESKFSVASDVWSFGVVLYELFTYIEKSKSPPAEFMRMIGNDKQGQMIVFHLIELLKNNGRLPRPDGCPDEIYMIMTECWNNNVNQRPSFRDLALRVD

Read-outs that look alike come from different tables or passages of the source.

The target of assay [1] is JAK1 (Homo sapiens (Human), UniProt P23458). Briefly: Jak Biochemical HTRF Assay, JAK1. The source says: (§1) Jak Biochemical HTRF Assay Protocol
(§2) Subsequent reagent additions employed an Agilent Bravo.

Assay [2] has as its target JAK2 (Homo sapiens (Human), UniProt O60674). Briefly: Jak Biochemical HTRF Assay, JAK2.
Excerpt: as §1, §2
A general note: TR-FRET usually uses a lanthanide donor and a delayed reading to cut background.

Setting [3] is: HTRF biochemical assay, GST-tagged catalytic domain, top concentration tested […].

As a reminder, the IC50 is the concentration at which inhibition is half-maximal. Read a high IC50 as lower potency. `COC(=O)C(C)(C)OC(=O)N1CCC(CC#N)(n2cc(C(N)=O)c(Nc3ccc(F)cc3)n2)CC1` [Example 29-A, 1-Methoxy-2-methyl-1-oxopropan-2-yl4-{4-carbamoyl-3-[(4-fluorophenyl)amino]-1H-pyrazol-1-yl}-4-(cyanomethyl)piperidine-1-carboxylate] showed an IC50 in assay [1] of 1 nM.

With `N#CC[C@]1(n2cc(C(N)=O)c(Nc3ccnc(F)c3)n2)CC[C@@H](NS(=O)(=O)c2cccc(F)c2)CC1` [Example 42, cis-1-(1-(Cyanomethyl)-4-(3-fluorophenylsulfonamido)cyclohexyl)-3-((2-fluoropyridin-4-yl)amino)-1H-pyrazole-4-carboxamide], half-maximal inhibition in assay [2] (setting [3]) (IC50) required 336 nM.

Compound `N#CCC1(n2cc(C(N)=O)c(Nc3ccc(F)cc3)n2)CCN(C(=O)OC2CCOC2)CC1` (single isomer, unassigned) [Example 50-1, (3S or 3R)-tetrahydrofuran-3-yl 4-{4-carbamoyl-3-[(4-fluorophenyl)amino]-1H-pyrazol-1-yl}-4-(cyanomethyl)piperidine-1-carboxylate] displayed a half-inhibitory concentration (IC50) in assay [1] (setting [3]) of 1 nM.

The compound `N#CCC1(n2cc(C(N)=O)c(Nc3ccc(F)cc3)n2)CCN(C(=O)OC2CCOC2)CC1` (stereo not drawn) [Example 30-46, tetrahydrofuran-3-yl 4-{4-carbamoyl-3-[(4-fluorophenyl)amino]-1H-pyrazol-1-yl}-4-(cyanomethyl)piperidine-1-carboxylate] showed an IC50 in assay [1] (setting [3]) of 1 nM.

`CC(F)(F)C(=O)N1CC[C@@](CC#N)(n2cc(C(N)=O)c(Nc3ccc(F)nc3)n2)[C@H](F)C1` (single isomer, unassigned) [Example 43-2, 1-((3S,4R or 3R,4S)-4-(cyanomethyl)-1-(2,2-difluoropropanoyl)-3-fluoropiperidin-4-yl)-3-((6-fluoropyridin-3-yl)amino)-1H-pyrazole-4-carboxamide] had an IC50 in assay [2] of 67 nM.

In the case of `CC(F)(F)C(=O)N1CC[C@@](CC#N)(n2cc(C(N)=O)c(Nc3ccc(F)nc3)n2)[C@@H](F)C1` (single isomer, unassigned) [Example 43-4, 1-((3R,4R or 3S,4S)-4-(cyanomethyl)-1-(2,2-difluoropropanoyl)-3-fluoropiperidin-4-yl)-3-((6-fluoropyridin-3-yl)amino)-1H-pyrazole-4-carboxamide], the IC50 in assay [2] (setting [3]) was found to be 0.1 nM.

Turning to `CC(F)(F)C(=O)N1CC[C@](CC#N)(n2cc(C(N)=O)c(Nc3ccc(F)nc3)n2)[C@H](F)C1` (single isomer, unassigned) [Example 43-3, 1-((3R,4R or 3S,4S)-4-(cyanomethyl)-1-(2,2-difluoropropanoyl)-3-fluoropiperidin-4-yl)-3-((6-fluoropyridin-3-yl)amino)-1H-pyrazole-4-carboxamide], 5 nM corresponded to half-maximal inhibition in assay [2] (setting [3]) (IC50).

`CC(F)(F)C(=O)N1CC[C@](CC#N)(n2cc(C(N)=O)c(Nc3ccc(F)nc3)n2)[C@@H](F)C1` (single isomer, unassigned) [Example 43-1, 1-((3S,4R or 3R,4S)-4-(cyanomethyl)-1-(2,2-difluoropropanoyl)-3-fluoropiperidin-4-yl)-3-((6-fluoropyridin-3-yl)amino)-1H-pyrazole-4-carboxamide] came in with an IC50 in assay [2] of 13 nM.

In turn, `N#CCC1(n2cc(C(N)=O)c(Nc3ccc(F)cc3)n2)CCN(C(=O)OC2CCOC2)CC1` (single isomer, unassigned) [Example 50-2, (3S or 3R)-tetrahydrofuran-3-yl4-{4-carbamoyl-3-[(4-fluorophenyl)amino]-1H-pyrazol-1-yl}-4-(cyanomethyl)piperidine-1-carboxylate] yielded an IC50 in assay [1] (setting [3]) of 2 nM.
